Consider 1 compound from ChEMBL document CHEMBL3352063, “Transition state mimetics of the Plasmodium export element are potent inhibitors of Plasmepsin V from P. falciparum and P. vivax” (J Med Chem, 2014).

The assay can be described thus: Selectivity ratio of IC50 for human Cathepsin D to IC50 for Plasmodium falciparum plasmepsin V.

`CC(C)C[C@H](NC(=O)[C@@H](NC(=O)[C@H](CCCNC(=N)N)NS(=O)(=O)Cc1ccccc1)C(C)C)[C@@H](O)CC(=O)NCCc1ccccc1`: the Ratio IC50 was determined as 1300.
